Reference: patent publication US11938164B2, “Exosome-based cancer assays” (TRUSTEES OF BOSTON UNIVERSITY, priority 2021, dated 2024)

Test system: primary adipocytes
Test: Glucose uptake assay of primary adipocytes (induction of insulin resistance)
Format: cell-based, human
Conditions: TNFα 250 pM, 24 h, 10 nM insulin
Experimental: Treatment of mature, fully differentiated, primary adipocytes ex vivo with low concentrations (250 pM) of the pro-inflammatory cytokine tumor necrosis factor alpha (TNFa) is well established to ablate insulin-sensitive glucose transport and induce phosphorylation of Akt and other molecular changes. Human primary adipocytes were treated with 250 pM recombinant human TNFa (Abcam, ab9642), and 3T3-L1 adipocytes were treated with 1 nM recombinant ouse TNFa (Abcam, ab9740), overnight to induce insulin resistance.
To measure glucose uptake in cells, the Glucose Uptake-Glo™ Assay (J1341, Promega) was used as outlined in the manufacturer's protocol. This is a plate-based, bioluminescent method for measuring glucose uptake by living cells, based on the detection of 2-deoxyglucose-6-phosphate (2DG6P).

TNFα: recombinant human tumor necrosis factor alpha (Abcam, ab9642)
insulin-responsive glucose transport (fluorimetric glucose uptake assay): converted IS to IR adipocytes, unable to transport glucose in response to 10 nM insulin
